Among the data in ChEMBL document CHEMBL2069294, “Synthesis and evaluation of hybrid drugs for a potential HIV/AIDS-malaria combination therapy” (Bioorg Med Chem, 2012) are IC50 values, retold here.

The assay concerns HeLa. Kind of assay: Cytotoxicity against human HeLa cells by MTT assay. It is filed as cell-based. (In general: Tetrazolium assays rely on reduction of a dye to a coloured formazan, in cell work by metabolically active cells.)

SMILES strings stand for the structures.

On to `C1OOCOO1`, for which the IC50 was > 100 µM.

Broadly, the IC50 is the midpoint of a concentration-inhibition curve.
